Experimental logP (octanol/water) values from OPERA 2.9

Source: data files of OPERA 2.9 (Mansouri et al.), github.com/kmansouri/OPERA.

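These are experimental values that the OPERA curators gathered from public databases to train and test their QSAR models. A listed value is a point estimate from one report or more. Method and conditions are not stated for these values. The measured form (salt, isomer or mixture) is not always the one drawn. Some upstream entries may be estimates or bounds without being marked so.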

The octanol-water partition coefficient is given as log10; larger values mean a more lipophilic compound.
Cells with "–" have no entry in this list.

compound,name,logP
OCc1cc(Cl)cc(Cl)c1Cl,"Benzene, 1,2,5-trichloro-3-methoxy-",3.93
CC(Cc1ccc(C(C)(C)C)cc1)C(=O)O (stereo not drawn),3-(4-tert-Butylphenyl)-2-methylpropanoic acid,3.39
CCCCCCCC[Si](OCC)(OCC)OCC,Triethoxyoctylsilane,6.41
COCCOCCOCCOC,Triethylene glycol dimethyl ether,-0.48
Nc1ncnc2c1nc(SCc1ccccc1)n2[C@@H]1O[C@@H]2COP(=O)(O)O[C@H]2[C@H]1O,–,-1.15
F[B-](F)(F)F.F[B-](F)(F)F.F[N+]12CC[N+](CCl)(CC1)CC2,–,-3.39
O=C(Nc1ccc2nn(C3CCCCC3)nc2c1)c1ccc([N+](=O)[O-])cc1,N-(2-Cyclohexyl-2H-benzotriazol-5-yl)-4-nitrobenzamide,4.57
N#Cc1ccc(C(c2ccc(C#N)cc2)n2cncn2)cc1,"4,4'-(1H-1,2,4-Triazol-1-ylmethylene)dibenzonitrile",2.5
Cc1no[n+]([O-])c1S(=O)(=O)c1ccccc1,"3-(Benzenesulfonyl)-4-methyl-2-oxo-1,2lambda~5~,5-oxadiazole",2.26
CCCCCCCCOC(=O)c1ccccc1C(=O)OCCCC,Butyl octyl phthalate,6.82
CC(C)(C)CCN,"3,3-Dimethylbutylamine",1.72
COc1cc(C)cc(O)c1,3-Methoxy-5-methylphenol,0.9
C[N+](C)=C1C=CC(=C2C=C(c3ccc(N)cc3)SC(c3ccc(N)cc3)=C2)C=C1,–,1.9
O=C([O-])CC[n+]1ccccc1,3-(Pyridin-1-ium-1-yl)propanoate,-1.35
CCCCCCCCCCc1ccc(N)cc1,4-Decylaniline,6.09
CCc1cc2c3ccccc3ccc2c2ccccc12,6-Ethylchrysene,6.56
CCCCCCC=O,Heptanal,2.8
Cc1c(C)c(O)c(C)c(C)c1O,Durohydroquinone,1.8
CCOC(=O)C1=CCC[N+](C)(C)C1.[I-],–,-2.35
CC(S)C(=O)O.N (stereo not drawn),2-Sulfanylpropanoic acid--ammonia (1/1),1.15
Cc1nc2c([nH]1)CCN(C(=O)c1ccc(NC(=O)c3ccccc3-c3ccccc3)cc1)c1ccccc1-2,Conivaptan,6.3
O=c1occo1,"1,3-Dioxol-2-one",0.437
C1=CC(=C(c2ccccc2)c2ccccc2)C=C1,"6,6'-Diphenylfulvene",3.43
CCCCCCCCCCCCCCCCO,1-Hexadecanol,6.675
O=S(=O)([O-])c1ccc(/N=N/c2c(O)ccc3ccccc23)c2ccccc12.[Na+],"C.I. Acid Red 88, monosodium salt",-0.546
Oc1ccc2ccc(O)cc2c1,"2,7-Naphthalenediol",1.9
CCN(CC)c1nc(Nc2ccc(/C=C/c3ccc(Nc4nc(Nc5cc(S(=O)(=O)[O-])ccc5S(=O)(=O)[O-])nc(N(CC)CC)n4)cc3S(=O)(=O)[O-])c(S(=O)(=O)[O-])c2)nc(Nc2cc(S(=O)(=O)[O-])ccc2S(=O)(=O)[O-])n1.[Na+].[Na+].[Na+].[Na+].[Na+].[Na+],–,-1.97
Cc1[nH]cnc1CO,"1H-Imidazole-4-methanol, 5-methyl-",-0.62
NC(Cc1ccc(O)c(Br)c1)C(=O)O (stereo not drawn),3-Bromotyrosine,-0.72
CCc1ccc(C)nc1,5-Ethyl-2-methylpyridine,2.245
CC(C)N(c1nn(C)/c(=N\N=C2C=CC(=[N+](C)C)C=C2)s1)C(C)C.[Cl-].[Cl-].[Cl-].[Zn+2],–,-0.399
C[N+](C)(C)CCOC(=O)C1N=N1.[Br-],–,-3.52
Clc1cc(-c2c(Cl)ccc(Cl)c2Cl)c(Cl)c(Cl)c1Cl,"2,2',3,3',4,5,6'-Heptachlorobiphenyl",7.11
C=COCC(C)C,Vinyl isobutyl ether,3.085
CCCC(O)CO (stereo not drawn),–,0.06
CC(CO)(CO)C(=O)O,3-Hydroxy-2-(hydroxymethyl)-2-methylpropanoic acid,-1.1
NNC(=O)CCO,3-hydroxypropanehydrazide,-1
Cc1cc([NH-])c([NH-])cc1C.[Cl-].[Cl-].[Pt+4],–,-0.23
N[C@@H](Cc1c[nH]c2ccc(O)cc12)C(=O)O,L-5-Hydroxytryptophan,-2.051
C=COCCCC,Butyl vinyl ether,3.025
Oc1cc(O)c(Cl)cc1Cl,"4,6-Dichloro-1,3-benzenediol",2.32
Cc1cc(O)ccc1/N=N/c1ccc(Nc2ccc(S(=O)(=O)[O-])cc2[N+](=O)[O-])cc1.[Na+],–,-0.9
CC(=O)Nc1ccc(/N=N/c2c(N)ccc3cc(S(=O)(=O)[O-])cc(O)c23)c(C(F)(F)F)c1.[Na+],–,-1.5
CC1=NN(c2ccc(C)cc2)C(=O)C1,3-Methyl-1-p-tolyl-5-pyrazolone,1.77
O=C([O-])c1cc2ccccc2c(/N=N/c2ccc3ccccc3c2S(=O)(=O)[O-])c1O.[Ca+2],"C.I. Pigment Red 63, calcium salt (1:1)",1.8
CC(O)CC(C)(C)O (stereo not drawn),"2-Methyl-2,4-pentanediol",0.58
C1=CCC2CC=CC2C1 (stereo not drawn),"3a,4,7,7a-Tetrahydroindene",3.83
CC(C)(C)C1=CC(=O)C(C(C)(C)C)=CC1=O,"2,5-Di-tert-butylcyclohexa-2,5-diene-1,4-dione",4.81
CC(O)C[N+](C)(C)C.O=C[O-] (stereo not drawn),"1-Propanaminium, 2-hydroxy-N,N,N-trimethyl-, formate (1:1)",0.01
Cc1ccc(N(CC2=NCCN2)c2cccc(O)c2)cc1,Phentolamine,3.3